{
  "source": "patent US20130004581A1",
  "about": "“CONTROLLING UPTAKE BY CELLS” (Ramot at Tel-Aviv University Ltd., priority 2010, published 2013)",
  "key": {"[1]": {"test_system": "TK6 cells", "settings": "pH 5; 5 minutes; P<0.001"}, "[2]": {"test_system": "HaCaT cells", "settings": "Caco-2, pH 5", "procedure": "FIG. 6 is a chart showing PIU of molecules different by size and charge, in accordance with some embodiments of the invention. Hacat cultures were exposed to solutions of pH 5.2 or pH 7.4 for 5 minutes period, in the presence of different fluorescence molecules (All at 25 μM concentration). FACS analysis results (FL1, geometrical mean±SD) for the cell cultures exposed to pH 5.2 are presented as fold induction relative to results obtained for cells exposed to pH 7.4. This can be used, in some embodiments of the invention, to assess effect of molecule size and charge on uptake.\nFIGS. 7A-7B are charts showing the comparison of PIU in adherent and suspended HaCaT cells, in accordance with some embodiments of the invention. For FIG. 7A, HaCaT cells were tested either at their adherent state, or following harvest at a suspended state. […] FACS analyses (FL1) in terms of geometrical mean±SD are presented as fold induction relative to the constitutive uptake at physiological pH 7.4. n=9 in 3 independent experiments. For FIG. 7B, HaCaT Cells were cultivated at low, medium or high cell density. […] The cultures were harvested and undergone FACS analyses (FL1) in terms of geometrical mean±SD and are presented as fold induction relative to the constitutive uptake of low density cultures. Statistical significance was tested against the confluent culture, n=9 in 3 independent experiments. […]"}},
  "data": [
    {"substance": "Dextran-FITC", "values": [
      {"measurement": "dextran concentration relative to Caco2/TC7 and COS 5-7 cells", "setting": "[1]", "result": 2, "unit": "folds"},
      {"measurement": "dextran concentration relative to Caco2/TC7 and COS 5-7 cells", "setting": "[2]", "result": 2, "unit": "folds"}
    ]}
  ]
}
